Measured values from patent publication US7964219B2, “Pharmaceutical compositions for controlled release delivery of biologically active compounds” (QPS, LLC, priority 2004, dated 2011).

Legend:
[1] = Stability of octreotide in injectable formulations at room temperature by HPLC (Example 12)
Procedure: Injectable formulations of octreotide were prepared by dispersing octreotide in polymer solution in an appropriate solvent. […] The mixture was thoroughly mixed until a uniform suspension or solution was obtained. Six injectable formulations were prepared as shown below.
The stability of octreotide in the above injectable formulations at room temperature was monitored by HPLC and the results are shown in the table below.

[2] = not given; remark: listed apart in the source

With doxorubicin phytate the Solubility (DMSO) was “Soluble” and the Solubility (PBS (pH 7.4)) was 11.2 µg/mL.

With octreotide phytate the “Stability of octreotide (degradation)” value ([1]; PLGA solutions in NMP, room temperature over time) was “slight degradation of octreotide” and the “Stability of octreotide (degradation and/or acylation)” value ([1]; PLGA solutions in mPEG and PEGDM, room temperature) was “completely prevented the degradation and/or acylation of octreotide”.

tetracaine phytate showed a Solubility ([2]; Acetate Buffer (pH 4.5)) of 2700 µg/mL and a Solubility ([2]; PBS (pH 7.4)) of 7500 µg/mL.

Where two headings read alike, the source gives them in different places.
